Experimental data as given in patent US6921835B2, “Cyclic amino acids and derivatives thereof useful as pharmaceutical agents” (Warner Lambert Company, priority 1997, dated 2005).

By UniProt entry, the sequences of proteins in these tests, tags left out. Where a name states a change or a piece, a line headed by the entry shows the natural chain unless it says otherwise. Residues count along the entry.
UniProt A0A287BIN3, 25-1109: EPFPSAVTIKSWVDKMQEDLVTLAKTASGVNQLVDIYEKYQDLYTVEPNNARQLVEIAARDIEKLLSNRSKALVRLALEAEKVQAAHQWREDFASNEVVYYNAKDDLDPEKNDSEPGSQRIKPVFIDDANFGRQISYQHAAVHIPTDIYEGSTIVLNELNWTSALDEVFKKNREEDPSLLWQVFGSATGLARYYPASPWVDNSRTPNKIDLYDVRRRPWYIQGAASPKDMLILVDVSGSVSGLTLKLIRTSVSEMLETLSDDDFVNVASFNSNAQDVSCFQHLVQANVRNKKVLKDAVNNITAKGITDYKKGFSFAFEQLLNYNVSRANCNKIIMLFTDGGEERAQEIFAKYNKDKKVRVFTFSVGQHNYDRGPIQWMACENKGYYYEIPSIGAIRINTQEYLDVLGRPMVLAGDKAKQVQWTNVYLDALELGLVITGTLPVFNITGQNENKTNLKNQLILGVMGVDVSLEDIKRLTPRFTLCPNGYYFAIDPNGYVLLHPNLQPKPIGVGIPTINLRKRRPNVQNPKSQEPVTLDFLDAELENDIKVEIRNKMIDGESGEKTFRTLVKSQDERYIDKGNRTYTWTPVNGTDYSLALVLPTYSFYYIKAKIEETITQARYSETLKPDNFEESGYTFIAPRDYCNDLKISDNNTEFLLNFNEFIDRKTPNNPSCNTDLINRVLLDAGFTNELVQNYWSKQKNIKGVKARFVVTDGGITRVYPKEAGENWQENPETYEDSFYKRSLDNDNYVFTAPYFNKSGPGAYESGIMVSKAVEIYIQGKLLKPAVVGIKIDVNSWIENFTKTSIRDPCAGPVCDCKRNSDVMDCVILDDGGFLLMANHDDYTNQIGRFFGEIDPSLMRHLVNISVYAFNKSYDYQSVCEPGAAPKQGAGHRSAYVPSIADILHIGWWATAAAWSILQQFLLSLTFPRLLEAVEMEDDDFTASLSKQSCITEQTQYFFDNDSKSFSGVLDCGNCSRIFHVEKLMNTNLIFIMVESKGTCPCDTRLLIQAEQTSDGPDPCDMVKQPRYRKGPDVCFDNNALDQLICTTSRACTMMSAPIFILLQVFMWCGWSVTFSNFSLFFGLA

Biological target: T1, α2δ subunit (Sus scrofa, UniProt A0A287BIN3)
T1 construct: the α2δ subunit derived from porcine brain tissue was used; from tissue; host or cells: porcine brain tissue
Test: radioligand binding assay using [3H]gabapentin and the α2δ subunit
Parameters: species or system porcine

## NCC1(CC(=O)O)CCCCC1 [Gabapentin, 1-(aminomethyl)-cyclohexaneacetic acid, reference compound]
  IC50: 100 to 120 nM
